Experimental data: ChEMBL document CHEMBL1127447, “Isothiocyanate-substituted kappa-selective opioid receptor ligands derived from N-methyl-N-[(1S)-1-phenyl-2-(1-pyrrolidinyl)ethyl] phenylacetamide” (1994)

Sequences of proteins named here, by UniProt entry; tags and fusion partners are left off.
UniProt P41144, whole entry: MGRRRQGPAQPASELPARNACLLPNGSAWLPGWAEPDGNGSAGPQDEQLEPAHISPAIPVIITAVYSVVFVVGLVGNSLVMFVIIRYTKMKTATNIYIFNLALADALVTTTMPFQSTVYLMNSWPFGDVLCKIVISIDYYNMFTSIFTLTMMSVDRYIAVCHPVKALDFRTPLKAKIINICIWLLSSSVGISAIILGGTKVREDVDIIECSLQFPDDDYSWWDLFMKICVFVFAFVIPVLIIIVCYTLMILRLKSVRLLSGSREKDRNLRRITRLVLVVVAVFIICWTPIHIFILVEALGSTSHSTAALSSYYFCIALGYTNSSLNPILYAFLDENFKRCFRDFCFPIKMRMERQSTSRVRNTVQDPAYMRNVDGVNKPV

Legend:
[1] = molecular target: Kappa-type opioid receptor (Cavia porcellus) (UniProt P41144); assay: Tested for percentage specific binding of compound at 4.7 nM against [3H]U-69593 on unwashed kappa-opioid receptor binding site
[2] = molecular target: Kappa-type opioid receptor (Cavia porcellus) (UniProt P41144); assay: Tested for percentage specific binding of compound at 4.7 nM against [3H]U-69593 on kappa-opioid receptor binding site protected with 1 uM naloxone
[3] = molecular target: Kappa-type opioid receptor (Cavia porcellus) (UniProt P41144); assay: Tested for percentage specific binding of compound at 4.7 nM against [3H]U-69593 on washed kappa-opioid receptor binding site

In the case of `CN(C(=O)Cc1ccc(Cl)c(Cl)c1)[C@H](CN1CCCC1)c1ccccc1`, the Binding [1] is reported as 25%, the Binding [2] is reported as 39% and the Binding [3] is reported as 20%.
